Test results as given in PubChem BioAssay AID492947 (National Center for Advancing Translational Sciences (NCATS), 2010).
The list shows a part of the results, in another mix than the full data. Active and inactive are the calls of the source. Calls follow the shape of the dose curve; as a rule, active = well fitted activation curve with a large enough effect; inconclusive = small, poorly fitted or top-dose-only effect; inactive = flat fitted curve, though single readings scatter.
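Also: 0% = DMSO controls and full agonism = EC100 isoproterenol or metaproterenol; nearly all actives have a fitted effect of over 65% in size.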

Protein sequences, listed by entry. Tags and fused reporters are not part of them.
UniProt P07550, whole entry: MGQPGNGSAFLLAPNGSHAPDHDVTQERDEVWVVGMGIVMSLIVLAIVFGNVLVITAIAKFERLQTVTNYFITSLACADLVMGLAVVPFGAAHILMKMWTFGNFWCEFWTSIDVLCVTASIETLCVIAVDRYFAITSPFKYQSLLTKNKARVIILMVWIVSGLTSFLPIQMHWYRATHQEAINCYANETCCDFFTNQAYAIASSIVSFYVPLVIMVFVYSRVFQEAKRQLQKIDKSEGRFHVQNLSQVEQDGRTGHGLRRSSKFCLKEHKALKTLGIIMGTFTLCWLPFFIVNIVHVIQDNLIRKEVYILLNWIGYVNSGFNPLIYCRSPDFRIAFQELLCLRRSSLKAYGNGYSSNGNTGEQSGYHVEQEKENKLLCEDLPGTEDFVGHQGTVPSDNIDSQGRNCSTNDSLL

The compounds below were run against Beta-2 adrenergic receptor (Homo sapiens) (UniProt P07550) (assay: qHTS assay of beta-arrestin-biased ligands of beta2-adrenergic receptor). Conditions: beta-arrestin recruitment to beta2AR, cell-based reporter; at 46.1 µM (top of the series).
Text: NIH Molecular Libraries Probe Production Network [MLPCN]
NIH Chemical Genomics Center [NCGC]
PI: Bryan Roth and Bob Lefkowitz
The concept of biased agonism is an emerging concept of molecular pharmacology which proposes that seven transmembrane receptors (7TMRs) or G protein-coupled receptors (GPCRs), exist in multiple signaling conformations and complexes and that ligands (either agonists or antagonists) can induce signaling biased responses for distinct signal transduction cascades.
Furthermore, accumulating evidence over the last decade has drawn attention to a novel function of beta-arrestins as signal transducers that scaffold various signaling molecules upon activation of 7TMRs. […]
Tango cells were dispensed into white, solid, tissue-culture-treated 1536-well plates at 1500 cells/well in DMEM, containing 1% fetal bovine serum (FBS). […] Plates were then incubated for 15 minutes at room temperature, and subsequently measured on a ViewLux plate reader for luminescent signal using a clear filter with a 10 second exposure and 2x binning. The %Activity was determined from the corrected luminescence values.
Concentration-response curves were fitted to the signals arising from the resulting luminescence. […]
Keywords: biased agonism, beta2-AR, beta-arrestin, GPCR, 7TMR, Tango, luminescence, MLSMR, MLPCN, NIH Roadmap, qHTS, NCGC
With `CCC(=O)N(c1ccccc1)C1(COC)CCN(CCc2cccs2)CC1` the activation was inactive: 10.8%. In the case of `CCC(=O)N(c1ccccc1)C1(COC)CCN(CCn2nnn(CC)c2=O)CC1`, the activation is reported as inactive: -0.903%.
